We go through one molecule from patent US20210230134A1, “VITAMIN E DERIVATIVES AND THEIR USE AS MULTI-SCALE IMAGING AGENTS” (EXACT DELIVERY INC., priority 2018, published 2021).

By UniProt entry, the sequences of proteins in these tests, tags left out.
UniProt P49638, whole entry: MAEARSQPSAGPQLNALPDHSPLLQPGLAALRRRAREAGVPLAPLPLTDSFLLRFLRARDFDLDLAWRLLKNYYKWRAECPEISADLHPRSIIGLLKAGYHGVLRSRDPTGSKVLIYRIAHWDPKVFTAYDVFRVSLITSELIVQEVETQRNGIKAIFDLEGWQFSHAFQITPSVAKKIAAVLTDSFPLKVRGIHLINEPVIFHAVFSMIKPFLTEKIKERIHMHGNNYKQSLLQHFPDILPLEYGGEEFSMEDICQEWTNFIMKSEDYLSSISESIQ

Data set [1] concerns McA-RH7777-TetOn-TTP cells. The data set is described as follows: α-TTP facilitated secretion of TBtoc, fluorescence microscopy. The note with it: 15 μM serum-complexed, 18 hours loading; four hour secretion; Dox-induced TTP. The protocol: A) Representative images of McA-RH7777-TetOn-TTP cells induced to express TTP with doxycycline (1 μg/ml Dox) or treated with vehicle control (1 μg/ml Dox) and loaded with 15 μM of fetal bovine serum complexed 2 for 18 hours. After the TBtoc was removed by washing, a four hour “secretion” phase was followed by microscopic visualization of the fluorescence. B) Fluorescence was quantified in multiple fields and normalized to cell protein content. Shown are averages and standard deviations. Asterisks denote significant difference (P>0.05) between the TTP-expressing and non-expressing cells, as determined by Student's t-test.

Data set [2] has as its target α-TTP (α-tocopherol transfer protein) (Homo sapiens, UniProt P49638). In words: Fluorescence titration binding assay with α-TTP. The note with it: read-out: dissociation constant Kd; stock solutions in EtOH or dioxane; 0.4 μM α-TTP in TKE buffer pH 7.4. The protocol:
Assays were performed in triplicate and errors bars show standard errors from the mean (SEM). The errors on the no-protein control are smaller than the symbol size used

For the next data set, the system named is MEFs. In words: Cellular uptake of TB-toc by live-cell fluorescence imaging. The protocol:
(§1) C2C12 mouse myoblasts and mouse embryonic fibroblasts (MEFs) were cultured in DMEM supplemented with 10% (v/v) FBS, 4500 mg/L glucose, 4 mM L-glutamine, 1 mM sodium pyruvate, 2% (v/v) MEM nonessential amino acid solution, and penicillin (50 I.U./mL)/streptomycin (50 μg/mL) solution (complete media). Cells were cultured in a humidified 5% CO2 atmosphere within a Thermo Forma Series II water-jacketed CO2 incubator maintained at 37° C. Cells were transferred to fresh 96- or 6-well plates (2,000 cells/well & 60,000 cells/well, respectively) in the evening prior to commencing tocopherol treatments.
Fluorescence imaging of live cells was performed using Zeiss Axio Observer.Z1 inverted light/epifluorescence microscope equipped with ApoTome.2 optical sectioning, a Plan-Apochromat 63x/1.40 Oil DIC M27 objective lens, and a Hamamatsu ORCA-Flash4.0 V2 digital camera. Both the intensity of fluorescence illumination achieved via an X-Cite 120 LED light source and camera exposure times were held constant between experiments. BODIPY fluorescence was viewed using excitation and emission wavelength filter sets of 540-552 nm and 590-660 nm, respectively, with set excitation and emission wavelengths of 587 nm and 610 nm, respectively (Zeiss Item #411003-0010-000). Z-stack series consisted of approximately 20-40 slices taken at 0.32 nm intervals and were rendered into 2D maximum intensity projections using the “extended depth of focus” processing tool using Zeiss Zen 2 (blue edition) microscopy software. […] Fluorescence intensity was analyzed from the microscope images using the ImageJ software.
TB-toc was delivered to the cells using two methods, in DMSO stock solutions and in LUVs. […] Top row are fluorescence images (Ex. 587 nm; Em. 610 nm); the bottom row are the brightfield images. (B) Fluorescence intensity of TB-toc in C2C12 cells delivered via DMSO and LUVs after 40 min. of incubations. […] (C) The relative fluorescence intensity of TB-toc introduced to MEF cells via LUVs (red circles) and DMSO (black squares) and introduced to C2C12 cells via LUVs (blue triangles).

The subject of a further data set is C2C12 mouse myoblasts. The data set is described as follows: MTT tetrazolium reduction viability assay, C2C12 myoblasts. The settings on record: cultured myoblasts; concentrations over five orders of magnitude. The protocol:
as §1
Each tocopherol was dissolved in sterile 100% DMSO to yield a 1 M stock solution. Less concentrated stock solutions were subsequently prepared using ten-fold serial dilutions. All tocopherol solutions were stored at −20° C. To treat cultured cells, media was replaced with complete media containing freshly-added tocopherol; the final amount of vehicle (DMSO) for all concentrations tested was 0.1% (v/v).
Media was discarded, wells were washed once with phenol red-free complete culture media, and 100 μL/well phenol red-free complete culture media containing 0.45 mg/mL MTT was added. […] Plates were incubated at room temperature in darkness for 2 h before recording absorbance at 570 nm using a Bio-Tek PowerWave Microplate UV-Vis spectrophotometer (Winooski, Vt., USA). […]

Turning to `Cc1cc(/C=C/c2ccc(C[C@]3(C)CCc4c(C)c(O)c(C)c(C)c4O3)s2)n2c1C=C1C=CC=[N+]1[B-]2(F)F`, in data set [1], the “cell fluorescence after secretion phase, TTP-expressing vs non-expressing cells” value is on record as “significant difference”. In data set [2], the Kd was 5 to 10 nM. Moreover, the “time to complete uptake” value in the data set with MEFs (delivered in DMSO) is 30 min. For the same molecule, in the data set with MEFs (delivered to MEFs via LUVs), the “distress to the cells during uptake” value is “no observable distress” and the “time to completed uptake” value is listed as “approximately 30 minutes”. In addition, the “viability response to TB-toc (MTT)” value in the data set on C2C12 mouse myoblasts is listed as “respond”.
